PMC12481580 (Journal of Medicinal Chemistry, 2025)

Amino acid sequences for entries named in this document (tags omitted).
UniProt P30989, whole entry: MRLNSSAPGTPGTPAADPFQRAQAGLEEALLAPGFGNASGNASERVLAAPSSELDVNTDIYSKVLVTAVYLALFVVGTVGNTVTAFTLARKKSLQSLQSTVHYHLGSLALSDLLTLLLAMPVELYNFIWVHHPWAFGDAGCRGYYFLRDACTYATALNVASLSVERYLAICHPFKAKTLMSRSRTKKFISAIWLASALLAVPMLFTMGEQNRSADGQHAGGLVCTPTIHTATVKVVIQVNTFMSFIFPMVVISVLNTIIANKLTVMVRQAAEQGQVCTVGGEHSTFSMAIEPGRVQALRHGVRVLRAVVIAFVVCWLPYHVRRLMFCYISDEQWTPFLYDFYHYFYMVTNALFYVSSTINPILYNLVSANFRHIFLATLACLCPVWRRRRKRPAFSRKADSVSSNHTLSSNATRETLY

What was measured:
NTS1R [1] = target: T1, NTS1R (Homo sapiens, UniProt P30989); assay: radioligand competition binding with [3H]UR-MK300 at intact HT-29 colon carcinoma cells; details: [3H]UR-MK300, intact HT-29 cells, 23 °C; read-out: NTS1R pK i ± SEM (converted)
NTS1R [2] = target: T1, NTS1R; assay: cell-based; details: NTS1R pEC50 ± SEM

Structure (SMILES)	Ki (NTS1R [1])	EC50 (NTS1R [2])
CC[C@H](C)[C@H](NC(=O)[C@H](NC(=O)[C@@H]1CCCN1C(=O)[C@H](CCCNC(=N)N)NC(=O)[C@H](CCCNC(=N)N)NC)C(C)(C)c1ccc(O)cc1)C(=O)N[C@@H](C[Si](C)(C)C)C(=O)O [16b, N ^α-Methyl-Arg-Arg-Pro-β,β-dimethyl-D-Tyr-Ile-β-trimethylsilyl-Ala Tris(hydrotrifluoroacetate)]	12300 pM	
CC[C@H](C)[C@H](NC(=O)[C@H](Cc1ccc(O)cc1)NC(=O)[C@@H]1CCCN1C(=O)[C@H](CCCNC(=N)N)NC(=O)[C@H](CCCNC(=N)N)NC)C(=O)N[C@@H](C[Si](C)(C)C)C(=O)O [compound 15, N ^α-Methyl-Arg-Arg-Pro-Tyr-Ile-β-trimethylsilyl-Ala Tris(hydrotrifluoroacetate)]	37.2 pM	
CC[C@H](C)[C@H](NC(=O)[C@@H](NC(=O)[C@@H]1CCCN1C(=O)[C@H](CCCNC(=N)N)NC(=O)[C@H](CCCNC(=N)NC(=O)NCCCCNC(=O)CCCCCN1\C(=C/C=C/C=C/C2=[N+](CCCCS(=O)(=O)[O-])c3ccccc3C2(C)C)C(C)(C)c2cc(S(=O)(=O)O)ccc21)NC)C(C)(C)c1ccc(O)cc1)C(=O)N[C@@H](C[Si](C)(C)C)C(=O)O [compound 21, N ^α-Methyl-N ^ω-{[4-(N-{6-3H-[2-(5–3H-(1-(4-sulfonatobutyl)-3,3-dimethyl)indol-2-ylidenepent-1,3-dienyl)-3,3-dimethyl-5-sulfo]indol-1-ium-1-yl}hexanoyl)-aminobutyl]aminocarbonyl}Arg-Arg-Pro-β,β-dimethyl-L-Tyr-Ile-β-trimethylsilyl-Ala Tris(hydrotrifluoroacetate)]	91.2 pM	1290 pM
